Consider 1 compound from ChEMBL document CHEMBL1155460, “Prediction of acetylcholinesterase inhibitors and characterization of correlative molecular descriptors by machine learning methods” (Eur J Med Chem, 2010).

By UniProt entry, the sequences of proteins in these tests, tags left out. Residues count along the entry.
UniProt P22303, 32-614 limits assumed: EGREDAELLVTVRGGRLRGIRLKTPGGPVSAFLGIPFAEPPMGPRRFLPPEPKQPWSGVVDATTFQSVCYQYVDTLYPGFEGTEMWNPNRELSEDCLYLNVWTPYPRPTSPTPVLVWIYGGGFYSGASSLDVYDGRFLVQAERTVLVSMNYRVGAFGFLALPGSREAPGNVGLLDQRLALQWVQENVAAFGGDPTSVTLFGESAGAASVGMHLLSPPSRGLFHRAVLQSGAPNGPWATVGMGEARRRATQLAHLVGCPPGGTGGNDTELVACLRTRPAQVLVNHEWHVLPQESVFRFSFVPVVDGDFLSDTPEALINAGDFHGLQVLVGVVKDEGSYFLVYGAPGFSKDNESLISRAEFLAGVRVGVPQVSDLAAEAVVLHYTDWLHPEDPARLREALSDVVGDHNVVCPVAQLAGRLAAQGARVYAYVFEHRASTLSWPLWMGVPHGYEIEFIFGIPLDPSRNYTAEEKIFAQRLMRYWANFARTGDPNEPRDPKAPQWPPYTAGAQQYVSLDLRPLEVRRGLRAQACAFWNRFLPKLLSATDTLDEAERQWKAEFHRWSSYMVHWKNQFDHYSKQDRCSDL

The test deals with Acetylcholinesterase (Homo sapiens, UniProt P22303).

In turn, `C/C(=N\O)c1ccc(Cl)c(NC(=O)c2c(-c3ccccc3Cl)noc2C)c1` had an IC50 of 6.7 µM.

As usually defined, the IC50 is the concentration at which inhibition is half-maximal. Low values mean greater potency in that assay, high ones weaker potency in that assay.
